This is one part of the list.

Test in all cases: FOREST: bead pull-down of RNA structure library v1, barcode microarray; U1A/LIN28A: 20 mM HEPES pH 7.5, 80 mM KCl, 20 mM NaCl, 10% glycerol, 2 mM DTT, 0.1 ug/uL BSA, 4 C; BG4/CIRBP/DHX36: 10 mM Tris-HCl pH 7.5, 100 mM KCl (or LiCl),; high values mean tight binding
For test [1], the target named is U1A (Homo sapiens, UniProt P09012).
The target in test [2] is T1, LIN28A (human?, UniProt Q9H9Z2 1-209).
T1 sequence: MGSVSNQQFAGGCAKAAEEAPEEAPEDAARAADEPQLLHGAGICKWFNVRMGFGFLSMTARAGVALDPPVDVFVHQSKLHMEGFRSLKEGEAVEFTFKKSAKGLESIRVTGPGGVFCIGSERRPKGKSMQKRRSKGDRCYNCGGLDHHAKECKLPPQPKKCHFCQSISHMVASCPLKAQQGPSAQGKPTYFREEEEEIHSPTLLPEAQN

Test [3] addresses T2, CIRBP (Homo sapiens, UniProt Q14011 1-172).
T2 sequence: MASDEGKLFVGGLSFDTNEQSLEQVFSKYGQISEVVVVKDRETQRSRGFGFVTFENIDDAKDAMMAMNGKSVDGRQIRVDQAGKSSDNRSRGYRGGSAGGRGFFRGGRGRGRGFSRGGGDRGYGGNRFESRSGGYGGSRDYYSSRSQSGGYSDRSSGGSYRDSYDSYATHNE

In test [4] the target is T3, DHX36 (Homo sapiens, UniProt Q9H2U1 1-1008).
T3 sequence: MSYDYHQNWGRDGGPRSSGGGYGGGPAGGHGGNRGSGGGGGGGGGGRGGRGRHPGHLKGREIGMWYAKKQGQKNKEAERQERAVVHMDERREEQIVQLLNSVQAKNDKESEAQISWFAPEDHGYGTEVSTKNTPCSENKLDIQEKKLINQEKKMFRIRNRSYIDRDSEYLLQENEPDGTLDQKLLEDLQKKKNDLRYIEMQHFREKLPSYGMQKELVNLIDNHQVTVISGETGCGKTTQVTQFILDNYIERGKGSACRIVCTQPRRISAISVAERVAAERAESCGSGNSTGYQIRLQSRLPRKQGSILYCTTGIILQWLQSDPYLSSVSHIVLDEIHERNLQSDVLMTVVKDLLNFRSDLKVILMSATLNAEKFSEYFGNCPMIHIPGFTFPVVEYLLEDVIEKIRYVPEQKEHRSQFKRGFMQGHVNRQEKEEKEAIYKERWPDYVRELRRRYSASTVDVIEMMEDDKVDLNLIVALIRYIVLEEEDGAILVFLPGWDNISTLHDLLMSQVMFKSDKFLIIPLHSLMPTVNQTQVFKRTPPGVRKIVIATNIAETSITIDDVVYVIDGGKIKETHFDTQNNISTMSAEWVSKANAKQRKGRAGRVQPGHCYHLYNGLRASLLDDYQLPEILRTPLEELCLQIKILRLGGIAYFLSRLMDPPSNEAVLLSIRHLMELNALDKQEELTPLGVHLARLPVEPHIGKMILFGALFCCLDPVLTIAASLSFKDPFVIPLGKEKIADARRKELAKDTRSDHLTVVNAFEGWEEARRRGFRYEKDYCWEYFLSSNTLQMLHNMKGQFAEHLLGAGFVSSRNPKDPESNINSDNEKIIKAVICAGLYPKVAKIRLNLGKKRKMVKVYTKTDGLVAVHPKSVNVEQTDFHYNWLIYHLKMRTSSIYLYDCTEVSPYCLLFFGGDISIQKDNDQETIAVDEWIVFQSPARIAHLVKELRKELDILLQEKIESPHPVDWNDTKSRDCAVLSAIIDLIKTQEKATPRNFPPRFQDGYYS

B1: hsa-mir-4501 (structured_RNA)
RNA: GGGAAGUCGCGAAGCACACUGACCAAGAGGUGUACGAAGUUUCAGCAUCACUGAAAUAUGUCUGAGCUUCUGUUGCUGAAGCUUCGUGCAC
As for B1, the binding signal in test [1] is 0.256 z-score; in test [2], 0.97 z-score; in test [3], -0.368 z-score; in test [4], -0.123 z-score.

B2: hsa-mir-6798 (structured_RNA)
RNA: GGGAAGGGUUAUAGGCCACUGUCACCAAGGUGUACGAAGUUUCAGCCUUGGGCCCAUUCCUUUCCUUACCCUACGCUGAAGCUUCGUGCAC
On to B2, for which the binding signal in test [1] is 0.274 z-score; in test [2] it was -0.0208 z-score; in test [3], -0.0469 z-score; in test [4], 0.434 z-score.

B3: hsa-mir-4753 (structured_RNA)
RNA: GGGACUGGUAAACGCGACGUUACAUCUGGGUGUACGAAGUUUCAGCAGAACAGAUAUAUCCACAGUACACUUGGCUGUUCUGCUGAAGCUUCGUGCAC
Regarding B3, the binding signal in test [1] was 1.88 z-score; in test [2], 0.0283 z-score; in test [3], -0.193 z-score; in test [4] it was -0.0936 z-score.

B4: hsa-mir-4531 (structured_RNA)
RNA: GGGACUAAGGGUACAAACACGGGUACGAGGUGUACGAAGUUUCAGCCAGUGGGGACAUGGCUGAAGCUUCGUGCAC
B4: the binding signal in test [1] is 0.264 z-score; in test [2] it was 0.9 z-score; in test [3], 0.164 z-score; in test [4] it was 1.54 z-score.

B5: hsa-mir-503 (structured_RNA)
RNA: GGGACGCUCCGUCGUUAAAAGCAUGUCUGGUGUACGAAGUUUCAGCCUGCAGUGAGCGAUCGGUGCUCUGGGGGCUGAAGCUUCGUGCAC
For the molecule B5, the binding signal in test [1] is 0.28 z-score; in test [2], 0.178 z-score; in test [3], -1.29 z-score; in test [4], 0.258 z-score.

B6: hsa-mir-448 (structured_RNA)
RNA: GGGAAGGUCUCGACUGCAGUCCAACUACGGUGUACGAAGUUUCAGCGCUGCCAGGAAAUCCCUAUUUCAUAUAAGAGGGGGCUGGCUGGUUGCGCUGAAGCUUCGUGCAC
As for B6, the binding signal in test [1] is 0.262 z-score; in test [2] it was -0.846 z-score; in test [3], -1.18 z-score; in test [4] it was 0.0113 z-score.

B7: hsa-mir-1199 (structured_RNA)
RNA: GGGACAUCUUGCAUAUCGGUCAGCACAGGGUGUACGAAGUUUCAGCGCAGGCCGUGAACUCGUCGAGCUGCGCGUGCGGCCGGUGCUCAGCUGAAGCUUCGUGCAC
For B7, the binding signal in test [1] turned out to be 0.271 z-score; in test [2], 0.561 z-score; in test [3], 0.648 z-score; in test [4], 0.401 z-score.

B8: hsa-mir-146a (structured_RNA)
RNA: GGGAAACGCACGAUUUGUUGAUGAUCAAGGUGUACGAAGUUUCAGCUGGGUUGUGUCAGUGUCAGACCUCGCUGAAGCUUCGUGCAC
Consider B8, for which the binding signal in test [1] was 0.271 z-score; in test [2] it was 1.03 z-score; in test [3], 1.83 z-score; in test [4] it was 0.0214 z-score.

B9: hsa-mir-4646 (structured_RNA)
RNA: GGGAGUCACCAGAGUCUGUAUCGGCCAUGGUGUACGAAGUUUCAGCGGGACAUUGCGGAGAGGGUCUCACAUUGUCCCGCUGAAGCUUCGUGCAC
As for B9, the binding signal in test [1] turned out to be 0.275 z-score; in test [2] it was 0.856 z-score; in test [3], 0.868 z-score; in test [4], 1.53 z-score.

B10: hsa-mir-4536-1 (structured_RNA)
RNA: GGGAAUUGCUUCUGGAACGGCUGUGUGAGGUGUACGAAGUUUCAGCACGAUAUAUAUACUGCCCUGCUUUUAUACAUACAUACAUACAUACCUAUAUCGUGCUGAAGCUUCGUGCAC
As to B10, the binding signal in test [1] is 3.67 z-score; in test [2], 1.68 z-score; in test [3], 1.36 z-score; in test [4], 1.14 z-score.

B11: hsa-mir-214 (structured_RNA)
RNA: GGGAGGAUCACGCUUAUAAUCCGAGUACGGUGUACGAAGUUUCAGCCUGUGCAGAACAUCCGCUCACCUGUACAGGCUGAAGCUUCGUGCAC
For B11, the binding signal in test [1] is 1.88 z-score; in test [2], 0.537 z-score; in test [3], -0.201 z-score; in test [4], 0.916 z-score.

B12: hsa-mir-3202-1 (structured_RNA)
RNA: GGGACAAAGAGAAGGAGGACUUAUGUUAGGUGUACGAAGUUUCAGCUAAUGAUUGGAGUCAUUUUCAGAGCAUUAGCUGAAGCUUCGUGCAC
On to B12, for which the binding signal in test [1] was 0.271 z-score; in test [2], -0.528 z-score; in test [3], -0.457 z-score; in test [4], -0.0344 z-score.

B13: hsa-mir-19b-1 (structured_RNA)
RNA: GGGAACAACGGCGACGUGACCUAACUCUGGUGUACGAAGUUUCAGCUCCAGCUGUGUGAUAUUCUGCUGGCUGAAGCUUCGUGCAC
As for B13, the binding signal in test [1] is 0.269 z-score; in test [2] it was 2.46 z-score; in test [3], -0.661 z-score; in test [4], -0.726 z-score.

B14: hsa-mir-3116-2 (structured_RNA)
RNA: GGGACGCGCCGAUUAUAGCGAUACCUACGGUGUACGAAGUUUCAGCGGCACCUACGAUACCCAGUGCCGCUGAAGCUUCGUGCAC
Regarding B14, the binding signal came to 0.278 z-score in test [1], 2.74 z-score in test [2], 0.548 z-score in test [3] and 0.255 z-score in test [4].

B15: PARIS_ID30 (structured_RNA)
RNA: GGGAAGUCGGGCUAAAGCCAUCACAAAAGGUGUACGAAGUUUCAGCUAUUCUCUCUGUUGGAACUCAAAUACACAGAACUGGGUAGCUGAAGCUUCGUGCAC
With B15, the binding signal in test [1] is 0.264 z-score; in test [2], -0.162 z-score; in test [3], -0.0498 z-score; in test [4], -1.17 z-score.

B16: hsa-mir-33a (structured_RNA)
RNA: GGGAGUAGAACGUGAGCGCGUAUCAAUAGGUGUACGAAGUUUCAGCAUUGCAUGUUCUGGUGGUACCCAUGCAAUGCUGAAGCUUCGUGCAC
Regarding B16, the binding signal was 0.258 z-score in test [1], 0.0186 z-score in test [2], -0.854 z-score in test [3] and -0.679 z-score in test [4].

B17: PARIS_ID21 (structured_RNA)
RNA: GGGAAAAGACCGGAGAUGAAAGCUGCACGGUGUACGAAGUUUCAGCGUAUGUAUUUUAUUAUUACCGGUUUUCCAUUUAUGAUGGUAAUAUUGUUUCUUCUAAGAAUAUUUAUGCUGAAGCUUCGUGCAC
Take B17: the binding signal in test [1] turned out to be 0.273 z-score; in test [2], 1.96 z-score; in test [3], 2.11 z-score; in test [4], 0.576 z-score.

B18: hsa-mir-6799 (structured_RNA)
RNA: GGGAAGUGUAGGCACGGCAUCACAUCCGGGUGUACGAAGUUUCAGCGGCUGGGGUCACUGACUCUGCUUCCCCUGCCGCUGAAGCUUCGUGCAC
For B18, the binding signal was 0.268 z-score in test [1], -0.0956 z-score in test [2], -0.79 z-score in test [3] and 0.352 z-score in test [4].

B19: hsa-mir-548ag-2 (structured_RNA)
RNA: GGGACACCACGGGUUGACACUCUCGAUCGGUGUACGAAGUUUCAGCCUGCCAUUGAAAGUAAAGGCAAGCUGAAGCUUCGUGCAC
Regarding B19, the binding signal was 0.255 z-score in test [1], 0.664 z-score in test [2], -1.21 z-score in test [3] and -0.989 z-score in test [4].

B20: hsa-mir-4704 (structured_RNA)
RNA: GGGACCUGCCGUAAGGUAUAAGCCGACAGGUGUACGAAGUUUCAGCGUGAUUGUCUUCCUCACUCAAUCAGGCUGAAGCUUCGUGCAC
B20: the binding signal in test [1] was 0.253 z-score; in test [2], -0.156 z-score; in test [3], -0.177 z-score; in test [4] it was 0.409 z-score.

B21: hsa-mir-8075 (structured_RNA)
RNA: GGGAAUAAGCCGUUCGCAUCUCCAAAGCGGUGUACGAAGUUUCAGCGCUUAUACGUGCCCUUGCUGCUGAAGCUUCGUGCAC
With B21, the binding signal in test [1] is 0.259 z-score; in test [2] it was 0.462 z-score; in test [3], 0.528 z-score; in test [4], 0.175 z-score.

B22: hsa-mir-1282 (structured_RNA)
RNA: GGGACCGAAAUCUAGAACUGCCCCUGGAGGUGUACGAAGUUUCAGCGCUUCUGCUGCAUGAUCUCCGAGUCCCUGGGGGUAGAGAUGAUGGGGCACUGGGAGGUGCUGAAGCUUCGUGCAC
As to B22, the binding signal was 0.258 z-score in test [1], -0.344 z-score in test [2], -0.466 z-score in test [3] and -0.334 z-score in test [4].

The values above are taken from article PMC7723054.
